The record followed here is patent US5270344A, “Method of treating a systemic disorder using trioxolane and diperoxide compounds” (priority 1992, dated 1993).

This data set concerns yeast infections of the vagina. As to conditions: suppository every 24 hours.

Each structure is given as a SMILES string.

Consider `Clc1ccccc1C(c1ccccc1)(c1ccccc1)n1ccnc1` [clotrimazole], for which the Irritation complaints result is recorded as “a number of these patients complain of irritation”. In addition, the “Reddening of the vagina” value (within 2 days for Example 3) is “a significant reddening of the vagina is present”.
